Results: patent US7241763B2, “3-furanyl analogs of toxoflavine as kinase inhibitors” (priority 2002, dated 2007)

Chains of the proteins cited; added tags and fusions are not shown.
UniProt P11802, whole entry: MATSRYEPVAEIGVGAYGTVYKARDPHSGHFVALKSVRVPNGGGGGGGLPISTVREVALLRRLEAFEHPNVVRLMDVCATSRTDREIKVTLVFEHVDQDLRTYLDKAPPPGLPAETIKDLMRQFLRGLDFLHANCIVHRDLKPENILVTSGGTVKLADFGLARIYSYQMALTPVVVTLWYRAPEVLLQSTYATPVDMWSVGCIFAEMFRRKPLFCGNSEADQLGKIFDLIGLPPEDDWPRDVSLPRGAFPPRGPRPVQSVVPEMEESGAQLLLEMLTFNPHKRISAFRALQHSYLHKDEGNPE
UniProt Q9Y243, whole entry: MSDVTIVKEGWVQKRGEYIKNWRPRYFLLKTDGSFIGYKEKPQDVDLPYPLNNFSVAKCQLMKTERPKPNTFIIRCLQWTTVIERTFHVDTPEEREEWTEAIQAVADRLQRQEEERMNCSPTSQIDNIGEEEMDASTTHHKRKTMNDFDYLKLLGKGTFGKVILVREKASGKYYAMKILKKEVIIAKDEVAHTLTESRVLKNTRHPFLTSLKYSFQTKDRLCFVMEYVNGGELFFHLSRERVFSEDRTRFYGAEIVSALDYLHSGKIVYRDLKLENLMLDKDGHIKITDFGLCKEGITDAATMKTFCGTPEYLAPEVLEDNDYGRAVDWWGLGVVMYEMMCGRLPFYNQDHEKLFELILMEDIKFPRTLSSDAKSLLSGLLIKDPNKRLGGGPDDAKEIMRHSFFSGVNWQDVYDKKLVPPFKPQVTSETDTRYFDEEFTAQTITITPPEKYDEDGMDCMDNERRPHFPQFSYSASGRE
UniProt P30305, whole entry: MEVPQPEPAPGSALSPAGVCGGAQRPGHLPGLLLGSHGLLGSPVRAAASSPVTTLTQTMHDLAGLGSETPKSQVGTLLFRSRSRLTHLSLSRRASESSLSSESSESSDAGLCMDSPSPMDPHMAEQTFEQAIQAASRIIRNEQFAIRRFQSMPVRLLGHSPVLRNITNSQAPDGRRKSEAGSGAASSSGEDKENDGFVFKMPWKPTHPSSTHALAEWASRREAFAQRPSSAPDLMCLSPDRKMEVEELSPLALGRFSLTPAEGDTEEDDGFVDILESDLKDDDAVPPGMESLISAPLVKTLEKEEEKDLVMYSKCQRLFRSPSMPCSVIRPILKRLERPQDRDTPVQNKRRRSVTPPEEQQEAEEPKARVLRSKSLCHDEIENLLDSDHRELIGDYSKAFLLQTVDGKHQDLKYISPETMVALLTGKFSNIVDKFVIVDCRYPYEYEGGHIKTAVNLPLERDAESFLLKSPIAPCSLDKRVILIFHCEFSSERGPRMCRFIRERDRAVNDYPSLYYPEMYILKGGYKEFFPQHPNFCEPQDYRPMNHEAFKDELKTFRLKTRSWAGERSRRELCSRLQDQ
UniProt P24385, whole entry partner: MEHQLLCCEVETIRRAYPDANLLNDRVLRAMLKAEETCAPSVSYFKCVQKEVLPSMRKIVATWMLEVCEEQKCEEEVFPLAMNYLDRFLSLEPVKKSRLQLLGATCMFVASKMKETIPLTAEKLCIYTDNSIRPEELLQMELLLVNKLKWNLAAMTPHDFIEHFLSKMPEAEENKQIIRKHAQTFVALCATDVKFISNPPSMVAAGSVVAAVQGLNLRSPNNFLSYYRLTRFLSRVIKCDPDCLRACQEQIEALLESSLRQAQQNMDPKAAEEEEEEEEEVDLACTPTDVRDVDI

How the values were obtained:
[1] = target: cdk4 (Homo sapiens, UniProt P11802); test: In vitro inhibition of cdk4 using a scintillant proximity assay (CDK4 SPA, Ex. C1); conditions: GST-pRb substrate, 33P-ATP, room temperature 30 minutes
Procedure: In Vitro Inhibition of cdk4 using a Scintillant Proximity Assay
The scintillant proximity assay (SPA) is in general described in U.S. Pat. No. 4,568,649 (Amersham Pharmacia Biotech). In the present cdk4 SPA kinase reaction assay, a kinase substrate consisting of a fragment of the restinoblastoma protein (pRb) tagged with […] (GST), is incubated with the aforementioned protein in the presence of (^33P) radiolabeled ATP. (^33P) phosporylation of the substrate is subsequently measured as light energy emitted using glutathione-coated SPA beads (Amersham Pharmacia Biotech) by trapping and quantifying the binding of the GST tagged and radiolabeled restinoblastoma protein.
The CDK4 SPA kinase reaction is performed at room temperature for 30 minutes in a 96-well microtiter plate. For each of the tested compounds a full dose response —10^−5M to 3.10^−9M—has been performed. Flavopiridol was used as reference compound. The 100 μl reaction volume contains 50 mM Hepes, 10 mM NaF, 10 mM MgCl2, 1 mM Na3VO4 pH 7.5, 1.5 μg CDK4-cell lysate/well, 0.2 μM unlabeled ATP, 1.7 μg/well GST-pRb, 1.7 nM AT^33P and 1 μl of a DMSO solution. […] The microtiterplates are centrifuges at 900 rpm for 10 minutes and the amount of phosphorylated (^33P) pRb is determined by counting (1 min/well) in a microtiterplate scintillation counter.

[2] = target: T1, AKT3 (Homo sapiens, UniProt Q9Y243); test: In vitro inhibition of AKT3 using a filter assay (AKT3 pep., Ex. C3); conditions: histone H2B substrate, 25° C. 3 hrs
Procedure: In Vitro Inhibition of AKT3 using a Filter Assay
In the present AKT3 filter assay, a kinase substrate consisting of a fragment of histone H2B, is incubated with the aforementioned protein in the presence of (^33P) radiolabeled ATP. The (^33P)phosporylated substrate binds to a phosphocellulose cation exchange filter, that can easily be removed from the incubation mixture and counted using a microplate scintillation counter.
AKT3 filter assays were performed at 25° C. for 3 hrs in the presence of 25 mM Hepes, pH 7.0, containing 15 mM MgCl2, 1 mM DTT Each assay was performed in a 100 μl reaction volume containing 111 nM AKT3 (diluted in 25 mM Hepes, pH 7.0, containing 15 mM MgCl2, 1 mM DTT) and the 2.5 μM Histone H2B and 2 nM ATP-P^32. The reaction was terminated by addition of 100 μl 75 mM H3PO4, 90 μl of the assay mixture was filtered through Phosphocellulose cation exchange paper. After five times washing with […] H3PO4, the filterpaper was counting in a microtiterplate scintillation counter.

[3] = system: A2780 cell; test: Cytotox/survival of A2780 cell after 3 days; conditions: A2780 ovarian carcinoma cell line
Procedure: In an alternative assay, the growth inhibitory effect of the compounds was tested on the ovarian carcinoma cell line A2780 using art known cytotoxicity assays such as LIVE/DEAD (Molecular Probes) or MTT.

[4] = target: CDC25B (Homo sapiens, UniProt P30305); test: In vitro inhibition of CDC25B using the fluorogenic substrate 3-OMFP (CDC25B WT, Ex. C5); conditions: 3-OMFP substrate, 1 hour room temperature
Procedure: In Vitro Inhibition of CDC25B using the Fluorogenic Substrate 3-OMFP
CDC25B phosphatase activity is assessed using the fluorogenic substrate 3-O-methyl-flurorescein-phosphate (3-OMFP). The phosphatase-reaction is performed for 1 hour at room temperature in a black microtiter plate in a volume of 50 μl. The reaction mixture contains 4 μg/mlCDC25B, 15 μM (3-OMFP), 15 mM Tris, 50 mM NaCl, 1 mM DTT, 1 mM Na2EDTA at pH 8.0 and 0.1% DMSO solution at 10^−5 M and the hits are tested in the same conditions in a full dose/response from 10^−5, 3.10^−6, 10^−6 and 3.10^−7 M. The enzymatic activity is determined by measuring the fluorescent signal at 485 nm (ex.) and 538 (em.).

[5] = target: T1, AKT3; test: Cellular inhibition of AKT3 using an ELISA (AKT cel, Ex. C6); conditions: MDA-MB 231 cells, phosphorylated MAPK ELISA, 30 minutes with compound
Procedure: Cellular Inhibition of AKT3 using an ELISA
The human breast adenocarcinoma cell line (MDA-MB 231) was used in an phosphospecific antibody cell ELISA (PACE) to assess the inhibitory effect of the compounds on AKT3 mediated phosphorylation of mitogen-activated protein kinase (MAPK). In the experiments the MDA-MB 231 cells were serum starved for 24 hours (5% CO2; 37° C.). Subsequently, the cells are incubated at room temperature for 2 hours with 20 μM (in serum free medium) of the phosphatidylinositol 3-kinase inhibitor Ly294002 (Alexis, San Diego, Calif.) prior to the incubation for 30 minutes with the compounds at a final concentration ranging from 1 nM to 3 μM. After fixation (with 4.5% formaldehyde) for 20 minutes and washing with PBS (0.1M) the cells were successively incubated with for 5 minutes with 0.1% Triton X-100 in PBS, for 20 minutes with 0.6% H2O2 and 1 hour with a 2% BSA solution as blocking buffer. […] The OD (490–655 nm) reflected the amount of phosphorylated MAPK and the pIC50 of the compounds was based on their effect with respect to blanco (0.1% DMSO) or an internal reference compound treatment.

CC(C)n1nc(-c2ccc(-c3ccc(CNC4CCN(S(=O)(=O)N(C)C)CC4)cc3)o2)nc2c(=O)n(C)c(=O)nc1-2
CDK4 SPA (Ex. C1): pIC50 values [1]: 7.225 | AKT3 pep. (Ex. C3): pIC50 values [2]: 7.19 | Cytotox/survival of A2780 cell after 3 days - pIC50 values [3]: 7.058 | CDC25B WT (Ex. C5): pIC50 values [4]: 7.731 | AKT cel (Ex. C6): pIC50 values [5]: 6.627
